Experimental findings from PubChem BioAssay AID1066 (SRMLSC, 2008) are described below.

Only a part is listed here, and it is no random draw. Active and inactive are the calls of the source.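 How the source made its calls: active means inhibition above a set limit, the median over all tested compounds plus 3 SD (cut at about 9.5% in these data); inconclusive means no clear call, values can overlap the other calls; inactive means the rest.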

In the assay the test system is HMG-CoA reductase (Enterococcus faecalis, mvaE). The assay is described as follows: class II HMG-CoA reductase enzyme inhibition – biochemical, Enterococcus faecalis, primary screen (AID 1066).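 Further: enzyme runs in reverse so mevalonate oxidation gives rising NADPH absorbance; 0% = complete reaction with DMSO and 100% = background rate lacking mevalonate.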 The following applies: purified E. faecalis HMGR, NADPH absorbance 340 nm kinetic; at 10 µM; hits give high values.
With `Cc1cccc(C)c1OP(C)(=O)Nc1ccc(SC(F)(F)F)cc1` (centres undefined), the inhibition – broadly, the drop in the measured response relative to a control, in per cent – was inactive: 2.33%.

On to `CP(=O)(Oc1ccccc1)OC(c1ccccc1)C(F)(F)F` (centres undefined), for which the inhibition was inactive: -3.08%.

For the molecule `CP(=O)(NC(=O)Nc1ccccc1)Oc1ccccc1` (centres undefined), the inhibition is inactive: -6.4%.

Consider `Cc1cc(C)cc(OP(C)(=O)Nc2ccc(SC(F)(F)F)cc2)c1` (centres undefined), for which the inhibition was inactive: 1.41%.

For `CCOP(C)(=S)SCC(=O)NC(C)C(=O)O` (centres undefined), the inhibition is inactive: -5.28%.

With `CCOC(=O)c1ccc(NP(C)(=O)Oc2ccc(OC)cc2)cc1` (centres undefined), the inhibition is inactive: -8.7%.

Turning to `CP(=O)(Nc1ccccn1)Oc1ccc(Cl)cc1` (centres undefined), the inhibition is inactive: -3.81%.

In the case of `CP(=S)(Nn1cnnc1)Oc1ccccc1` (centres undefined), the inhibition is inactive: -3.36%.

Consider `COc1ccccc1OP(C)(=O)Nc1ccccc1` (centres undefined), for which the inhibition was inactive: 0.41%.

On to `CP(=O)(Nc1ccccc1Br)Oc1ccccc1` (centres undefined), for which the inhibition is inactive: -4.96%.

`CC(C)(C)c1ccc(OP(C)(=O)Nc2ccc(SC(F)(F)F)cc2)cc1` (centres undefined): the inhibition was inactive: -6.28%.

Turning to `Cc1cccc(C)c1OP(C)(N)=O` (centres undefined), the inhibition was inactive: -0.59%.

As to `O=[N+]([O-])c1ccc2c(c1)C=Nc1ccccc1O2`, the inhibition is inactive: 2.86%.

In the case of `CCOC(=O)c1ccc(NP(C)(=O)Oc2ccccc2)cc1` (centres undefined), the inhibition was inactive: -1.17%.

With `COc1ccccc1OP(C)(=O)Nc1ccc(C)cc1` (centres undefined), the inhibition was inactive: -4.68%.

In the case of `Cc1ccc(NP(C)(=O)Oc2ccccc2)c(C)c1` (centres undefined), the inhibition was inactive: 1.57%.

Consider `COc1ccccc1OP(C)(=O)Nc1cc(Cl)ccc1C` (centres undefined), for which the inhibition is inactive: 1.53%.

In the case of `COc1ccc(OP(C)(=O)Nc2cccc(F)c2)cc1` (centres undefined), the inhibition is inactive: -0.98%.

Turning to `Cc1cc(C)cc(OP(C)(N)=O)c1` (centres undefined), the inhibition is inactive: -5.45%.

With `CCN(CC)CCCOC(=O)C(O)(c1ccccc1)c1ccccc1`, the inhibition is inactive: -0.65%.

As to `Cc1cc(C)cc(OP(C)(=O)Nc2ccc(C)cc2C)c1` (centres undefined), the inhibition was inactive: -4.06%.

In the case of `CCOC(=O)c1ccc(NP(C)(=O)Oc2cc(C)cc(C)c2)cc1` (centres undefined), the inhibition is inactive: 0.44%.

As for `CP(=O)(Nc1cccc(Br)c1)Oc1ccccc1` (centres undefined), the inhibition is inactive: 1.14%.

`Cc1cc(C)cc(OP(C)(=O)Nc2ccccn2)c1` (centres undefined): the inhibition was inactive: 3.07%.

For `Cc1ccc(C)c(NP(C)(=O)Oc2ccccc2)c1` (centres undefined), the inhibition was inactive: 2.74%.

As to `CC1=NCCc2c1[nH]c1ccccc21.O=[N+]([O-])c1cc([N+](=O)[O-])c(O)c([N+](=O)[O-])c1`, the inhibition is inactive: -3.42%.

Turning to `COc1ccccc1OP(C)(=O)Nc1c(C)cccc1C` (centres undefined), the inhibition was inactive: -8.15%.

Consider `CN1CCCCC1COC(=O)C1(O)c2ccccc2CCc2ccccc21` (centres undefined), for which the inhibition was inactive: -5.45%.

Consider `CP(=O)(Nc1ccc(SC(F)(F)F)cc1)Oc1ccccc1` (centres undefined), for which the inhibition was inactive: 0.7%.

In the case of `CCCOc1ccc(NP(C)(=O)Oc2ccc(Cl)cc2)cc1` (centres undefined), the inhibition was inactive: 1.51%.

For the molecule `O=[N+]([O-])c1cc([N+](=O)[O-])c(-n2nnc3ccccc32)c([N+](=O)[O-])c1`, the inhibition is inactive: -1.31%.

As for `Cc1nc2ccc3ccccc3c2s1.O=[N+]([O-])c1cc([N+](=O)[O-])c(O)c([N+](=O)[O-])c1`, the inhibition was inactive: -0.02%.

`CCOP(C)(=S)SCC(=O)NC(C)(CC)C(=O)O` (centres undefined): the inhibition was inactive: 0.67%.

Regarding `CP(=O)(Nc1ccc2c(c1)OCCO2)Oc1ccccc1` (centres undefined), the inhibition was inactive: -4.16%.

For `Cc1ccccc1NP(C)(=O)Nc1ccccc1C`, the inhibition was inactive: -12.1%.

As for `COc1ccc(OP(C)(=O)Nc2cccc(Br)c2)cc1` (centres undefined), the inhibition was inactive: 1.56%.

As for `COc1ccc(NP(C)(=O)Oc2ccccc2OC)cc1` (centres undefined), the inhibition is inactive: 3.53%.

For the molecule `CN(C)CCOC(=O)C(O)(c1ccccc1)C1CCCCC1` (centres undefined), the inhibition was inactive: 0%.

On to `O=[N+]([O-])c1cc([N+](=O)[O-])c(NCC2CCS(=O)(=O)C2)c([N+](=O)[O-])c1` (centres undefined), for which the inhibition was inactive: -7.33%.

For `COc1ccc(OP(C)(=O)Nc2ccc(SC(F)(F)F)cc2)cc1` (centres undefined), the inhibition is inactive: -3.13%.

`CCOC(=O)c1ccc(NP(C)(=O)Oc2ccc(F)cc2)cc1` (centres undefined): the inhibition was inactive: -0.25%.

Regarding `CCN(CC)CCCOC(=O)C(O)(c1ccccc1)C1CCCCC1` (centres undefined), the inhibition was inactive: -1.13%.

Regarding `CP(=O)(Nc1ccccc1)Oc1ccc(F)cc1` (centres undefined), the inhibition is inactive: 4.07%.

On to `CC(C)c1ccc(OP(C)(=O)Nc2ccc(SC(F)(F)F)cc2)cc1` (centres undefined), for which the inhibition is inactive: -2.37%.

Regarding `CP(=O)(Nc1ccccc1F)Oc1ccccc1` (centres undefined), the inhibition is inactive: -3.93%.

For the molecule `O=C(OCCN1CCN(CCOCc2ccccc2)CC1)C(O)(c1ccccc1)c1ccccc1`, the inhibition is inactive: -3.37%.

Turning to `CN(C)CCOC(=O)C(O)(c1ccccc1)C1CCCC1` (centres undefined), the inhibition is inactive: 1.25%.

Turning to `COc1ccc(OP(C)(=O)Nc2ccccn2)cc1` (centres undefined), the inhibition is inactive: -3.28%.

Consider `O=[N+]([O-])c1cc([N+](=O)[O-])c(Nc2ccccn2)c([N+](=O)[O-])c1`, for which the inhibition is inactive: -1.71%.

As to `Cc1c(NP(C)(=O)Oc2ccc(C(C)C)cc2)c(=O)n(-c2ccccc2)n1C` (centres undefined), the inhibition was inactive: -6.91%.

Turning to `CCc1ccc(OP(C)(=O)O)cc1`, the inhibition is inactive: -11.1%.

For the molecule `CP(=O)(Nc1ccccn1)Oc1ccccc1` (centres undefined), the inhibition is inactive: -1.58%.

For `COc1ccccc1OP(C)(=O)Nc1ccc(C)cc1C` (centres undefined), the inhibition was inactive: -2.46%.

Turning to `Cc1cc(C)cc(OP(C)(=O)Nc2cccc(C(F)(F)F)c2)c1` (centres undefined), the inhibition is inactive: -8.48%.

As to `COc1ccc(OP(C)(=O)Nc2ccccc2Br)cc1` (centres undefined), the inhibition is inactive: -4.68%.

As for `COc1ccccc1OP(C)(=O)Nc1ccc(C)c(C)c1` (centres undefined), the inhibition was inactive: -5.12%.

As for `Cc1nc2ccc3ccccc3c2o1.O=[N+]([O-])c1cc([N+](=O)[O-])c(O)c([N+](=O)[O-])c1`, the inhibition was inactive: -0.29%.

Regarding `CP(=O)(OCCOc1ccccc1)OCCOc1ccccc1`, the inhibition was inactive: 0.95%.

`CP(=O)(Nc1ccc(Cl)cc1Cl)Oc1ccccc1` (centres undefined): the inhibition is inactive: 0.93%.

Consider `CP(=O)(OC12CC3CC(CC(C3)C1)C2)OC12CC3CC(CC(C3)C1)C2`, for which the inhibition is inactive: -1.43%.

In the case of `CCOC(=O)c1ccc(NP(C)(=O)Oc2ccc(Cl)cc2)cc1` (centres undefined), the inhibition was inactive: -0.04%.

As for `CCN(CC)CC(O)COC(=O)C(O)(c1ccccc1)C1CCCCC1` (centres undefined), the inhibition is inactive: -3.41%.

On to `COc1ccc(OP(C)(=O)Nc2ccc(Br)cc2)cc1` (centres undefined), for which the inhibition is inactive: 2.13%.

Turning to `CP(=O)(Oc1ccccc1)N1CCOC1=O` (centres undefined), the inhibition was inactive: -10.4%.

`CCc1ccc(OP(C)(=O)Nc2cccnc2)cc1` (centres undefined): the inhibition was inactive: 0.99%.

On to `CP(=O)(Nc1ccc(Cl)cc1)Oc1ccc(F)cc1` (centres undefined), for which the inhibition is inactive: -0.14%.

Consider `CC(C)(C)c1ccc(OP(C)(=O)O)cc1`, for which the inhibition is inactive: -1.06%.

Take `COc1ccccc1OP(C)(=O)Nc1ccccc1Br` (centres undefined): the inhibition was inactive: -0.32%.

As for `CN(C)C(=O)c1c([N+](=O)[O-])cc([N+](=O)[O-])cc1[N+](=O)[O-]`, the inhibition was inactive: -1.32%.
